This note sets out measurements from patent US9771337B2, “Neprilysin inhibitors” (THERAVANCE BIOPHARMA R&D IP, LLC, priority 2011, dated 2017).

The chains behind the UniProt entries cited, without tags or fusion partners.
UniProt P08473, whole entry: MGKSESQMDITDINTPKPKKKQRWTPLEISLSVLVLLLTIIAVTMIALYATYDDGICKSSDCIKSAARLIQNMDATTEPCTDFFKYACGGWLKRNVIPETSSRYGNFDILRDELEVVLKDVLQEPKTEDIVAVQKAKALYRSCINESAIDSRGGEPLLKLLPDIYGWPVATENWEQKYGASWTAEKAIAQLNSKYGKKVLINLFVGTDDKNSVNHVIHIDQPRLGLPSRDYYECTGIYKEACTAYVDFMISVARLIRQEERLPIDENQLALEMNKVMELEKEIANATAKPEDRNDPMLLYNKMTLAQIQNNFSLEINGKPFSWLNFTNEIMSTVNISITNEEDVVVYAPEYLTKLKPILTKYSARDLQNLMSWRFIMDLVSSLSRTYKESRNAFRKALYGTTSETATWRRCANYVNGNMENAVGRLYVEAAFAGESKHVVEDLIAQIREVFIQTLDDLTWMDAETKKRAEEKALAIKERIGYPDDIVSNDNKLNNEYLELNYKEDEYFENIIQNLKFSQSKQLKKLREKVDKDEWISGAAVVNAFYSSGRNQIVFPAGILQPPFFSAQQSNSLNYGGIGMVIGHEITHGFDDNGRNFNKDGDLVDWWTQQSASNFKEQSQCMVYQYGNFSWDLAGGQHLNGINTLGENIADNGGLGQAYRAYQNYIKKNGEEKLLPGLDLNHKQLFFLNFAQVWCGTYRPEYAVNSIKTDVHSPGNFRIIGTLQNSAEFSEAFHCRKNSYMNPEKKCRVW

The target of this test is human NEP (Homo sapiens, UniProt P08473). As to the kind of experiment: In vitro enzyme inhibition assay, inhibitor potency at human NEP. To be noted: pKi values at human NEP, recombinant human NEP, fluorogenic peptide substrate 10 μM, 37° C. Here is the method:
The inhibitory activities of compounds at human and rat neprilysin (EC 3.4.24.11; NEP) and human angiotensin converting enzyme (ACE) were determined using in vitro assays as described below.
Recombinant human NEP and recombinant human ACE were obtained commercially (R&D Systems, Minneapolis, Minn., catalog numbers 1182-ZN and 929-ZN, respectively). The fluorogenic peptide substrate Mca-D-Arg-Arg-Leu-Dap-(Dnp)-OH (Medeiros et al. (1997) Braz. J. Med. Biol. Res. 30:1157-62; Anaspec, San Jose, Calif.) and Abz-Phe-Arg-Lys(Dnp)-Pro-OH (Araujo et al. (2000) Biochemistry 39:8519-8525; Bachem, Torrance, Calif.) were used in the NEP and ACE assays respectively.
The assays were performed in 384-well white opaque plates at 37° C. using the fluorogenic peptide substrates at a concentration of 10 μM in Assay Buffer (NEP: 50 mM HEPES, pH 7.5, 100 mM NaCl, 0.01% polyethylene glycol sorbitan monolaurate (Tween-20), 10 μM ZnSO4; ACE: 50 mM HEPES, pH 7.5, 100 mM NaCl, 0.01% Tween-20, 1 μM ZnSO4).
Test compounds were assayed over the range of concentrations from […] to 20 μM. Test compounds were added to the enzymes and incubated for 30 minute at 37° C. prior to initiating the reaction by the addition of substrate. […]
Plates were read on a fluorometer with excitation and emission wavelengths set to 320 nm and 405 nm, respectively. […]

Consider `O=C(N[C@H](Cc1ccccc1Cl)[C@@H](O)C(=O)O)c1cc(-c2ccccc2C(=O)O)ccn1`, for which the pKi entry (tested form: TFA) is listed as “≧9.0”. `O=C(N[C@H](Cc1ccccc1)[C@@H](O)C(=O)O)c1ccc(-c2ccccc2C(=O)O)nn1`: the pKi is 8.0-8.9.
